Drawing on patent US12275729B2 (Merck Sharp & Dohme LLC, priority 2017, dated 2025), this text covers IC50 for 2 compounds.

Protein sequences, listed by entry. Tags and fused reporters are not part of them.
UniProt P14902, whole entry: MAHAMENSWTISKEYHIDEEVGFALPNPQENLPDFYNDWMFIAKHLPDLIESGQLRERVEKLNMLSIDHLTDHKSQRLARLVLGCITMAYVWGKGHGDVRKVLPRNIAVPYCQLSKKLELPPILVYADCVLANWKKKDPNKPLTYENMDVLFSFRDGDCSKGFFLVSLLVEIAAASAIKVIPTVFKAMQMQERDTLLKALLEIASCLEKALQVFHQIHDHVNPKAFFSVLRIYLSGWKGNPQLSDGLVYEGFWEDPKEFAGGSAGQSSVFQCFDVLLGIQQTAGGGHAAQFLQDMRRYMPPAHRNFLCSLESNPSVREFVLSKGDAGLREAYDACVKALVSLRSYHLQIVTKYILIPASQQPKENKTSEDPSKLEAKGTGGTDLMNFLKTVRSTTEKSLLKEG

In this experiment the target is IDO1 (Homo sapiens, UniProt P14902). The experiment can be described thus: IDO1 Cellular Assay in HeLa Cells Stimulated with IFNγ. Conditions: read-out: Hela IC50, about 48 hours. The class given is cell-based.

Turning to `CC(C)(NC(=O)c1ccc(F)cc1)c1ccc2c(n1)CCCN2C(=O)C1CC1`, the half-maximal inhibitory concentration (IC50) (as a rule, the concentration at which inhibition is half-maximal) turned out to be 0.104 µM. With `Cc1nccc(N2CCCc3nc(C(C)(C)NC(=O)c4ccc(Cl)cc4)ccc32)n1`, the 50% inhibitory concentration (IC50) was determined as 0.00428 µM.
